From ChEMBL document CHEMBL4414562, “Discovery of the First in Vivo Active Inhibitors of the Soluble Epoxide Hydrolase Phosphatase Domain” (J Med Chem, 2019)

Protein sequences, listed by entry. Tags and fused reporters are not part of them.
UniProt P23219, whole entry: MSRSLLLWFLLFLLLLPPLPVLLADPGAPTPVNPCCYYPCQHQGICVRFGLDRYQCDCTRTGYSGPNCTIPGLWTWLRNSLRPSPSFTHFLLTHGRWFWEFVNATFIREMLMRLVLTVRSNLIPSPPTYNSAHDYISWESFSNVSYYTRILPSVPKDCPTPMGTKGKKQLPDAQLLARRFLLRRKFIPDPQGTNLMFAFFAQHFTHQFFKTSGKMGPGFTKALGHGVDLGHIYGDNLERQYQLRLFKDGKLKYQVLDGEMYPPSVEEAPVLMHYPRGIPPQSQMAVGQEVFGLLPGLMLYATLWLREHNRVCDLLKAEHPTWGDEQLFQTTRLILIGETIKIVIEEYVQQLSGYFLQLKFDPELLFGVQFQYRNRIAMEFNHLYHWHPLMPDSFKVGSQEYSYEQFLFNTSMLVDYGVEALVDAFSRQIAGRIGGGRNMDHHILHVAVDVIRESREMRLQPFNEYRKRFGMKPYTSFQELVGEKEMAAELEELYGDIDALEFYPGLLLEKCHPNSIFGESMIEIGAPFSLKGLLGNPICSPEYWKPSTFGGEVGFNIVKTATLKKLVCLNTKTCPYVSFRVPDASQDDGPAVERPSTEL

Target: Prostaglandin G/H synthase 1 (Homo sapiens, UniProt P23219)
Experiment: Inhibition of COX1 in A23187-stimulated human platelets assessed as reduction in TXA2 production
Summary of the method: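 Washed human platelets preincubated with increasing compound concentrations, then challenged with calcium ionophore A23187. TXB2 (stable TXA2 metabolite) in supernatant quantified by LC−MS/MS with TXB2-d4 internal standard.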

IC50: 740 nM
Compound: O=C(O)CCc1nc(-c2ccccc2)c(-c2ccccc2)o1 [OXAPROZIN]
